What was measured:
TGR5 (STC1 cell line) = target: T1, TGR5 (STC1 cell line) (Mus musculus, UniProt Q80SS6); experiment: STC1 cAMP Agonist EC50 Determination
T1 sequence (Q80SS6 1-329): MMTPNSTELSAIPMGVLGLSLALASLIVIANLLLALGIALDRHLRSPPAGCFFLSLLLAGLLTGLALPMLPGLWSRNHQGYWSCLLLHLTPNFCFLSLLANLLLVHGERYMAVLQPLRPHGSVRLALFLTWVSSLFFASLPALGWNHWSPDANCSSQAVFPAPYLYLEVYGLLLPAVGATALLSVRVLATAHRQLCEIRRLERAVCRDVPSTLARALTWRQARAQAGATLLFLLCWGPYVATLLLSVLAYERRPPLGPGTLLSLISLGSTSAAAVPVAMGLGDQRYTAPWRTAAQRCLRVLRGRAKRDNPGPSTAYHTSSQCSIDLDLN

[1] = target: T2, TGR5 (NCI-H716 cell line) (Homo sapiens, UniProt Q8TDU6); experiment: NCI-H716 cAMP Agonist EC50 Determination
T2 sequence (Q8TDU6 1-330): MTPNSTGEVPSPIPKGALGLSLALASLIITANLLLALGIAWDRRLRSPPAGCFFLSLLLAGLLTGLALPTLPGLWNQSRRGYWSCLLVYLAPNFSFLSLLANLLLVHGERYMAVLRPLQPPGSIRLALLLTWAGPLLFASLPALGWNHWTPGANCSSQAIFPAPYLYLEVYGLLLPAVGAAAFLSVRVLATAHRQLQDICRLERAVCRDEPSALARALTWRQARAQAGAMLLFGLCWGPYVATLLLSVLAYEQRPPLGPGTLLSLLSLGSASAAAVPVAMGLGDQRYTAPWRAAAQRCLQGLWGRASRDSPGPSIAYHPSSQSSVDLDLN

EC50 (TGR5 (STC1 cell line)): 0.18 µM | EC50 [1]: > 50 µM
Compound: COc1cc(C2(C)CCCc3nc(SCc4c(F)cc(C#N)cc4F)n(-c4ccc(F)cc4)c32)ccc1F (centres unmarked) [Example 119, 3,5-difluoro-4-(((7-(4-fluoro-3-methoxyphenyl)-1-(4-fluorophenyl)-7-methyl-4,5,6,7-tetrahydro-1H-benzo[d]imidazol-2-yl)thio)methyl)benzonitrile]

Source: patent publication US10077241B2 (Janssen Pharmaceutica NV, priority 2014, dated 2018)
